Measured values as given in US20170280728A1, “ANTIMICROBIAL COMPOSITIONS AND METHODS OF THEIR USE” (CMS TECHNOLOGY, INC.., priority 2014, published 2017).

Legend:
[1] = test system: General Bacteria (bacterial bird rinse); assay: General Bacteria Assay (Vivione RAPID-B Total Plate Count); type: cell-based; details: at about 5 ppm
[2] = test system: Salmonella enterica serovar Anatum (ATCC #9270); assay: Salmonella Assay (liquid sanitizer exposure, log reduction); type: cell-based; details: fixed chlorine pH operating level of 6.0, at lower ppm

## OCl [chlorine, sodium hypochlorite]
[1]
  antibacterial effect (in words): negligible antibacterial effect
[2]
  antimicrobial effect (in words): limited antimicrobial effect
